Assay results reported in ChEMBL document CHEMBL3886634, “Substituted 3-haloallylamine inhibitors of ASSAO and uses thereof” (2016).

Molecular target: T1, Amine oxidase [copper-containing] 3 (Homo sapiens, UniProt Q16853)
T1 sequence (Q16853 whole entry): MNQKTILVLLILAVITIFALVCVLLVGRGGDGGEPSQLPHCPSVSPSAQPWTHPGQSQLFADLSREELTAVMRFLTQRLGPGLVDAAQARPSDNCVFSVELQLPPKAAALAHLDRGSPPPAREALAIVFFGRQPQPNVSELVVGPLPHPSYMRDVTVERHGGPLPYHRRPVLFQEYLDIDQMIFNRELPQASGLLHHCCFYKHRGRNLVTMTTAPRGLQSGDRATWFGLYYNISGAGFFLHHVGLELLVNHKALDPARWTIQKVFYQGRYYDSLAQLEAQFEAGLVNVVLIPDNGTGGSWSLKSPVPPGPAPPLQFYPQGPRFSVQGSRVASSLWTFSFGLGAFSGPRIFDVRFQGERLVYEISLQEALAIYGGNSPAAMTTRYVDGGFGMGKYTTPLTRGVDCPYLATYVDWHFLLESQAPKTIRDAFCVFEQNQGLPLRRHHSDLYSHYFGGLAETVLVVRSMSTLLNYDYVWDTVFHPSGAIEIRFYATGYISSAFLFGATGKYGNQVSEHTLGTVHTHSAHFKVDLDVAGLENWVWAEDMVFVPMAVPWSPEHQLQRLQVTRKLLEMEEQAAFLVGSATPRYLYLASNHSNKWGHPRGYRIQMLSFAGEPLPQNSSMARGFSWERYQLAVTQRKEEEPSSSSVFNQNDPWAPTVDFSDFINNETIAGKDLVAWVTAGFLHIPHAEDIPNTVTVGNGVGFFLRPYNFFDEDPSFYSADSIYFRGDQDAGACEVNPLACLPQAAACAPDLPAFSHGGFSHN
Experiment: Recombinant SSAO/VAP-1 Inhibtion Assay: Briefly, HMEC cell expressing human SSAO/VAP-1 were grown in several 10 cm petri dishes, once the cells reached 100% confluency, cells were harvested and homogenates were prepared. Cells were washed twice with 5 mL of chilled HES buffer (20 mM HEPES, 1 mM EDTA, 250 mM sucrose, pH 7.4). HES buffer containing 1× protease inhibitor (Sigma Aldrich) and added …
Format: tissue-based, Tail

- IC50: < 100 µM
Structure (SMILES): CN(C)S(=O)(=O)c1ccc(OC/C(=C/F)CN)cc1
